Experimental data reported in PMC9073595, “Synthesis, human topoisomerase IIα inhibitory properties and molecular modeling studies of anti-proliferative curcumin mimics” (RSC Advances, 2019).

Tested on: A431 (squamous skin) carcinoma cell line
Experiment: MTT anti-proliferative assay, A431
Type: cell-based
Conditions: Homo sapiens, A-431, 72 h incubation, 50% inhibition of cell growth, read-out: IC50, μM ± SD, A431

IC50: 23.4 ± 2.09 µM
SMILES: O=c1[nH]cc(F)c(=O)[nH]1 [Compound 5-FU, 5-fluorouracil, reference compound]
